Measurements published in paper PMC6664820, “Novel natural and synthetic inhibitors of solute carriers SGLT1 and SGLT2” (Pharmacology Research & Perspectives, 2019).

Test system: CHO‐hSGLT1/2 cells
Test: Cytotoxicity assay (ToxiLight, adenylate kinase leakage into CHO‐SGLT1/2 inhibition assay media);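 note: bioluminescent read-out of adenylate kinase released from lysed cells into the medium, given relative to DMSO vehicle control defined as 0%, higher meaning more cytolysis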
Design: dose or concentration left out as unconfirmed

O=C(CCc1ccc(O)cc1)c1c(O)cc(O)cc1O[C@@H]1O[C@H](CO)[C@@H](O)[C@H](O)[C@H]1O [Phloridzin, phloridzin, reference compound]
CY[…] (% of vehicle control) Mean: 2.7 % of vehicle control
